This passage reports activity (quench increase) results from PubChem BioAssay AID720511 (Broad Institute, 2013).

Molecules are shown by their SMILES. Only a part is listed here, and it is no random draw. Some tests of the compounds listed are not included; inactive here does not mean inactive elsewhere. Active and inactive are the calls of the source.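 The calls were made as follows: active = mean added fluorescence quench of at least 8% versus neutral control, with both replicates also reaching 8%; inconclusive = only one of the mean or replicate conditions met; inactive = mean below 8% and not both replicates reaching 8%.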

This test in a line: F508del CFTR correction, initial screen, CFBE line, single point (AID 720511).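 Also: corrector assay measuring rescue of mutant channel to the surface after 24 h compound exposure.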 As to conditions: CFBE cells, YFP halide quenching, at 7.58 µM, active compounds read high, % fluorescence drop versus neutral controls, stimulated with forskolin plus potentiator P3.
As to `COc1cc(SC)ccc1C(=O)NCC1(N(C)C)CCCCC1`, the activity (quench increase) was inactive: -1.32%.

Turning to `CCN(CC)CC(C)C(C)OC(=O)C(O)(c1ccccc1)c1ccccc1` (stereo unspecified), the activity (quench increase) was inactive: 1.57%.

With `Cc1ccc(C(=O)NCC2(N3CCCCC3)CCCCC2)cc1`, the activity (quench increase) was inactive: 0.412%.

As for `O=C(NCC1(N2CCCCC2)CCCCC1)c1cc([N+](=O)[O-])ccc1Cl`, the activity (quench increase) was inactive: -0.98%.

Consider `CN1[C@@H]2CC[C@H]1CC(OC(=O)C(O)(c1ccccc1)c1ccccc1)C2` (stereo partly specified), for which the activity (quench increase) is inactive: -0.74%.

Turning to `O=C(NCC1(N2CCCCC2)CCCCC1)c1cc(F)c(F)cc1Cl`, the activity (quench increase) is inactive: 2.12%.

Regarding `C=CCN1CCN(CCOC(=O)C(O)(c2ccccc2)c2ccccc2)CC1`, the activity (quench increase) was inactive: -2.65%.

In the case of `O=C(NCC1(N2CCCCC2)CCCCC1)c1cccc(Br)c1`, the activity (quench increase) was inactive: -0.786%.

Turning to `Cc1cc(C(=O)NCC2(N3CCCCC3)CCCCC2)ccc1[N+](=O)[O-]`, the activity (quench increase) was inactive: -1.83%.

`COc1ccc(C(=O)NCC2(N(C)C)CCCCC2)cc1`: the activity (quench increase) is inactive: -4.12%.

With `CN(C)c1ccc(C(=O)NCC2(N(C)C)CCCCC2)cc1`, the activity (quench increase) is inactive: 1.1%.

Turning to `Cc1ccccc1C(=O)NCC1(N2CCCCC2)CCCCC1`, the activity (quench increase) is inactive: -0.36%.

In the case of `COc1ccc(Cl)cc1C(=O)NCC1(N(C)C)CCCCC1`, the activity (quench increase) is inactive: 1.37%.

Take `COc1cccc(C(=O)NCC2(N3CCCCC3)CCCCC2)c1`: the activity (quench increase) is inactive: 1.2%.

Take `O=C(NCC1(N2CCCCC2)CCCCC1)c1cccc(Cl)c1`: the activity (quench increase) was inactive: -0.073%.

On to `CN(C)C1(CNC(=O)c2ccc(Br)cc2)CCCCC1`, for which the activity (quench increase) was inactive: -0.292%.

Regarding `COc1cc(C(=O)NCC2(N(C)C)CCCCC2)c([N+](=O)[O-])cc1OC`, the activity (quench increase) was inactive: 1.43%.

Consider `COc1ccc(Br)c(C(=O)NCC2(N3CCCCC3)CCCCC2)c1`, for which the activity (quench increase) was inactive: -1.77%.

For `C=C(C)C#CC(O)(C(=O)OC1CCN(C)CC1)c1ccccc1` (stereo unspecified), the activity (quench increase) is inactive: -3.51%.

As to `O=C(OCCN1CCCC1)C(O)(c1ccccc1)c1ccccc1`, the activity (quench increase) was inactive: -1.23%.

Take `CC(C)Oc1ccc(C(=O)NCC2(N(C)C)CCCCC2)cc1`: the activity (quench increase) was inactive: 4.68%.
